In PMC3962266 (Journal of medicinal chemistry, 2013):

Legend:
[1] = In vivo PK in mice, IV and PO
[2] = test system: human platelet-rich plasma; experiment: Platelet aggregation assay; format: cell-based

**Q.** Which results are given for `CCCCNc1ncc(C(=O)NCc2ccc(-n3ccnc3)cc2)c(N[C@H]2CC[C@H](O)CC2)n1` [Compound 23]?
**A.** Volume of distribution relative to normal volume of total body water (0.70 L/kg) [1]: 2 fold; Inhibition of collagen-induced platelet aggregation (in words) [2]: potently inhibits; inhibition at 3 µM ([2]; Homo sapiens, Platelet, read-out: Inhibition of platelet aggregation): > 25%
